Like-named read-outs stand apart in the source and are kept apart here.
Columns and labels:
[1] = mean ± SEM
[2] = mean ± SEM; remark: listed apart in the source

Percent of metabolite relative to total for respective ITC in the plasma ([1]; 12 hrs after broccoli sprouts, GSTP1 A/A (n=7)): 13.6 ± 0.59%
Percent of metabolite relative to total for respective ITC in the plasma ([1]; 12 hrs after broccoli sprouts, GSTP1 A/G (n=5)): 14.6 ± 1.20%
Percent of metabolite relative to total for respective ITC in the plasma ([1]; 12 hrs after broccoli supplement, GSTP1 A/A (n=7)): 12.09 ± 0.42%
Percent of metabolite relative to total for respective ITC in the plasma ([1]; 12 hrs after broccoli supplement, GSTP1 A/G (n=5)): 12.1 ± 1.59%
Percent of metabolite relative to total metabolites for respective ITC in urine ([2]; first 12 hrs after broccoli sprouts, GSTP1 A/A (n=7)): 16.4 ± 1.38%
Percent of metabolite relative to total metabolites for respective ITC in urine ([2]; first 12 hrs after broccoli sprouts, GSTP1 A/G (n=5)): 18.4 ± 2.42%
Percent of metabolite relative to total metabolites for respective ITC in urine ([2]; first 12 hrs after broccoli supplement, GSTP1 A/A (n=7)): 15.4 ± 2.51%
Percent of metabolite relative to total metabolites for respective ITC in urine ([2]; first 12 hrs after broccoli supplement, GSTP1 A/G (n=5)): 16.9 ± 2.68%
Substance: ERN-cysteine
